In US7393839B2, “Polymorphic antiviral nucleoside compounds” (Roche Palo Alto LLC, priority 2003, dated 2008):

Assay: Accelerated stability study (Form A): temperature, humidity, light
Assay type: physicochemical
Method: The exceptional stability of the Form A polymorph of Ib was confirmed in a long-term accelerated stability study to evaluate the effect of temperature, humidity, and light on the quality of the drug substance with time. Stability samples were evaluated for appearance, water content, chemical stability using an HPLC method and physical stability using DSC, specific rotation and x-ray powder diffraction methods. Photochemical stability was assessed by comparison with a control sample that was wrapped in aluminum foil and set side by side with the light sample in the light chamber. Results of the study are contained in Table 2
DSC Thermograms were collected using a 2920 Modulated DSC from Thermal Analyzer (TA) Instruments. The heating rate was 10° C./min with a nitrogen purge maintained throughout the run.
HPLC grade deionized water obtained from Milli-Q Water Purification System (Millipore Corp., Milford Mass.), HPLC grade acetonitrile (Burdick Jackson Lab, Inc., Muskegon, Mich.), -Heptane sulfonic acid sodium salt, monohydrate (Fluka), Phosphoric acid, 85% (Mallinckrodt, Sigma, or Fluka), and Hydrochloric Acid, 1 N (J. T. Baker) were used to prepared mobile phase and dilution solvent.
Chromatography was carried out on a Zorbax SB-CN, 4.6×150 mm, 3.5 μm column. A ternary solvent gradient was used comprised of (A) water, (B) acetonitrile and (C) 200 mM heptane sulfonic acid sodium salt, monohydrate with 1% phosphoric acid in water. To prepare 500 mL of the solution, dissolve 22.0 g of 1-heptane sulfonic acid sodium salt, monohydrate in about 400 mL of water. Add 5 mL of phosphoric acid, 85% and then dilute to a volume of 500 mL with water and mix thoroughly. A flow rate of 1.0 mL/m was used. The column was run isocratically with 90% A and 10% C for 5 m. A linear gradient to 20% A, 70% B and 10% C was run over 20 m. This mixture was run isocratically for an addition 5 m after which the solvent was ramped back to 90% A and […] over 2 m followed by 8 m to reequilibrate the column. The column was maintained at 40° C. The retention time of Ib was approximately 11 m.

[1] = Light Control (wrapped in aluminum foil), ICH Q1B

2-(S)-amino-3-methyl-butyric acid 5S-(3-carbamoyl-[1,2,4]triazol-1-yl)-3R,4S-dihydroxy-tetrahydrofuran-2S-yl methyl ester, monohydrochloride [Form A]
% Water (2–8° C., 3 months): 2.60%
DSC Onset temp (2–8° C., 3 months): 159.90 °C
Specific Rotation (2–8° C., 3 months): 8.0
% Water (2–8° C., 4 weeks): 2.56%
DSC Onset temp (2–8° C., 4 weeks): 163.17 °C
Specific Rotation (2–8° C., 4 weeks): 8.5
% Water (25° C. 60% RH, 3 months): 2.63%
DSC Onset temp (25° C. 60% RH, 3 months): 159.28 °C
Specific Rotation (25° C. 60% RH, 3 months): 6.4
% Water (25° C. 60% RH, 4 weeks): 2.33%
DSC Onset temp (25° C. 60% RH, 4 weeks): 162.99 °C
Specific Rotation (25° C. 60% RH, 4 weeks): 7.6
% Water (30° C. 60% RH, 3 months): 2.51%
DSC Onset temp (30° C. 60% RH, 3 months): 161.55 °C
Specific Rotation (30° C. 60% RH, 3 months): 7.1
% Water (30° C. 60% RH, 4 weeks): 2.49%
DSC Onset temp (30° C. 60% RH, 4 weeks): 163.78 °C
Specific Rotation (30° C. 60% RH, 4 weeks): 8.0
% Water (40° C. 75% RH, 3 months): 2.63%
DSC Onset temp (40° C. 75% RH, 3 months): 160.06 °C
Specific Rotation (40° C. 75% RH, 3 months): 7.3
% Water (40° C. 75% RH, 4 weeks): 2.50%
DSC Onset temp (40° C. 75% RH, 4 weeks): 161.90 °C
Specific Rotation (40° C. 75% RH, 4 weeks): 8.7
% Water (60° C., 3 months): 2.63%
DSC Onset temp (60° C., 3 months): 159.80 °C
Specific Rotation (60° C., 3 months): 7.4
% Water (60° C., 4 weeks): 2.52%
DSC Onset temp (60° C., 4 weeks): 160.47 °C
Specific Rotation (60° C., 4 weeks): 6.9
% Water [1]: 2.48%
DSC Onset temp [1]: 159.38 °C
Specific Rotation [1]: 7.0
% Water (Light, ICH Q1B): 2.52%
DSC Onset temp (Light, ICH Q1B): 161.88 °C
Specific Rotation (Light, ICH Q1B): 7.1
% Water (RT, Initial): 2.25%
DSC Onset temp (RT, Initial): 159.0 °C
Specific Rotation (RT, Initial): 6.3
